What is called Ki is a dissociation constant, usually derived from enzyme kinetics or from competition with a known ligand. Higher therefore signals weaker binding.

In ChEMBL document CHEMBL1144844, “Synthesis and characterization of 5,6,7,8-tetrahydroquinoline C5a receptor antagonists” (Bioorg Med Chem Lett, 2008) one finds Ki data, which are given here for one molecule.

The assay has as its target T1, C5a anaphylatoxin chemotactic receptor 1 (Homo sapiens, UniProt P21730).
T1 sequence (P21730 whole entry): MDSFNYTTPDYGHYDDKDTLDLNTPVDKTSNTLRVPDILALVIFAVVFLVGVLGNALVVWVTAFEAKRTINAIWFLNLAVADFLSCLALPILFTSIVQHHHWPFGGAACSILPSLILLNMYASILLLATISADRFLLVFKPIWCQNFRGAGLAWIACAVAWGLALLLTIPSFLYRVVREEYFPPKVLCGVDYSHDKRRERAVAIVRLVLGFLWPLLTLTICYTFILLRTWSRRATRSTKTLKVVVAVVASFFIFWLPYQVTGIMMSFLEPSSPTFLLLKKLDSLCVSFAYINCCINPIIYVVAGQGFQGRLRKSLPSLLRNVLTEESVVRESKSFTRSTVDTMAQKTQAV
The assay is described as follows: Displacement of [125I]C5a from human C5a receptor in U937 cells. It counts as cell-based, U-937. Summed up:
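Competition binding on U937 cells that had been differentiated for 48–72 h with 1 mM dibutyryl cAMP. Compound in 1% DMSO was pre-incubated for 30 min at 25 °C. Then 0.05 nM Bolton–Hunter [¹²⁵I]-C5a was added for 60 min at 4 °C. Non-specific binding was defined with 100 nM C5a. Cells were filtered on PEI-soaked GF/B and counted by scintillation.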
Background: Displacement assays read how much labelled ligand stays bound in the presence of the test substance.

In turn, `CCc1cccc(CC)c1-c1cc(OC)c2c(n1)CCCC2N(CC)c1cccc2ccccc12` (stereo in doubt; 27) returned a Ki of 8.9 nM.
